Literature values in US20240115547A1, “PSYCHOTROPIC AGENTS AND USES THEREOF” (LB PHARMACEUTICALS INC., priority 2021, published 2024).

Chains of the proteins cited; added tags and fusions are not shown. Residues count along the entry.
UniProt P34969, 1-445 isoform P34969-2: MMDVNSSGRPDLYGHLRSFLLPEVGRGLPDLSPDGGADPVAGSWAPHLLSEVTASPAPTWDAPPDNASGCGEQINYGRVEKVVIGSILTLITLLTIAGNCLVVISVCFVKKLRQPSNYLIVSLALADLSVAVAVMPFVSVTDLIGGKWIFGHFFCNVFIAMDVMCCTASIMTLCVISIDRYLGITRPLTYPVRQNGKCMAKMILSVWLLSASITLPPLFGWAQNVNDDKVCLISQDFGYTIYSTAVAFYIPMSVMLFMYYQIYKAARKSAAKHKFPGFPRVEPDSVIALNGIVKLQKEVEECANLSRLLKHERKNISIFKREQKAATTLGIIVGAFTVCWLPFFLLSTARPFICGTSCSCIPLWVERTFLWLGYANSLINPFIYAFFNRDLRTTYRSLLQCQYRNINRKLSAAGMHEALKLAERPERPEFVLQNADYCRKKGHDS

Biological target: HT7a (Homo sapiens, UniProt P34969)
Details: cited from earlier work

For `CCN1CCCC1CNC(=O)c1cc(S(=O)(=O)CC)c(N)cc1OC` (stereo not shown) [amisulpride, 4-amino-N-(((1-ethyl-2-pyrrolidinyl)methyl)-5-(ethylsulfonyl))-2-methoxybenzamide], the “Ki HT7a” value is listed as “low double digit”.
